{"sequences": {"note": "The chains behind the UniProt entries cited, without tags or fusion partners.", "UniProt P21728, whole entry": "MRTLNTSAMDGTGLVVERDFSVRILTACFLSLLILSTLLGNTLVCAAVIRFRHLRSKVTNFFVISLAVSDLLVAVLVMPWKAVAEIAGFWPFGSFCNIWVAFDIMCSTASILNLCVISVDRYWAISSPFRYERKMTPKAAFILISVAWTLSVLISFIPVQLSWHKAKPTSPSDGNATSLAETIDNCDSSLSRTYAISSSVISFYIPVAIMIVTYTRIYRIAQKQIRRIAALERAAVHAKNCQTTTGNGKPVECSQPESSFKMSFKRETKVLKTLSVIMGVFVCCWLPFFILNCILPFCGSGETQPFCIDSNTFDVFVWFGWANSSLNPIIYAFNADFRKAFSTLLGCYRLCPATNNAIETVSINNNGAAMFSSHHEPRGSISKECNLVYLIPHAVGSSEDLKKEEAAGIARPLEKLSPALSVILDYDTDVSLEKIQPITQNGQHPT"}, "source": "PubChem BioAssay AID642", "about": "(Vanderbilt High Throughput Screening Facility, 2007)", "note": "The entries are a selection whose mix differs from that of the whole data set. The source made the active and inactive calls.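 How the source made its calls: active means luminescence in either of two replicates above the same-plate mean plus 3 SD of the low-dose dopamine control; inactive means the rest.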"}
{"target": "D(1A) dopamine receptor (Homo sapiens) (UniProt P21728)", "test": "D1 receptor positive allosteric modulators, retest, confirmation, cell-based, HEK293 D1, CRE-luciferase, duplicate (AID 642)", "details": "dopamine EC30 potentiation, at 10 µM, active compounds read high"}
{"smiles": "CCOc1ncccc1C(=O)NCC1(N2CCOCC2)CCCCC1", "luminescence": "active: 20500"}
